Reference: patent US20070009965A1, “Novel method for screening for GPCR agonists and/or antagonists from herbs” (Advanced Gene Technology, Corp., priority 2004, published 2007)

Amino acid sequences for entries named in this document (tags omitted).
UniProt P41968, whole entry, species assumed: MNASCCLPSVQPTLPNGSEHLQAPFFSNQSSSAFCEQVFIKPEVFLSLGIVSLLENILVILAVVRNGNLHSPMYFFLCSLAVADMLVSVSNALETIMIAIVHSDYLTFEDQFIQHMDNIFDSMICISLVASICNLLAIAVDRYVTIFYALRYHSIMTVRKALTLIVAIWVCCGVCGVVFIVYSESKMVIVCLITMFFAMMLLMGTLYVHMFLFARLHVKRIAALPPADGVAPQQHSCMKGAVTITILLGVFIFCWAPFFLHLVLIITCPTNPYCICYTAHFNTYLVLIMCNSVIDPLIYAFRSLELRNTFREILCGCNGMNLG

Target: MC3R (Homo sapiens, UniProt P41968)
Assay: herbal chip hybridization with MC3R and Cy3-anti-MC3R, fluorescence imaging
Type: binding
Conditions: at least 25 ng/ml NDP-MSH spotted on coated slide; at least 25 μg/ml MC3R; at least 5 μg/ml Cy3-anti-MC3R; laser scanner
Procedure: A coated plastic slide (1) having active epoxy groups on its surface was prepared in accordance with the method disclosed in the Paragraph entitled “Pretreatment of the Plastic Slide and Preparation of the Coated Plastic Slide” under the Example section of U.S. Pat. No. 6,645,719 B2.
In accordance with the teaching of the Paragraph entitled “Loading Samples onto the Coated Plastic Slide in Microarray Format” under the Example section of U.S. Pat. No. 6,645,719 B2, at least 25 ng/ml of α-melanocyte stimulating hormone (NDP-MSH, NH2-Ser-Thr-Ser-Nle-Glu-His-D-Phe-Arg-Trp-Gly-Lys-Pro-Val-OH), that can bind to melanocortin receptors (MCXR), i.e. representatives of GPCRs, were spotted onto the coated plastic slide (1) by Microarrayer BioGrid I (BioRobotic, Cambridge, UK), and then the resultant slide (2) was washed with a blocking buffer (0.1 M sodium borate and 0.1 M ethanolamine) for removing unbound proteins.
In a dark room, under room temperature, at least 25 μg/ml of MC3R, MC4R and MC5R were individually added to the slides (2), and the resultant slides (3) were allowed to stand for 1 hour for completing hybridization. The slides (3) were washed with 1× TBST buffer (50 mM Tris, pH 7.3, 0.15 M NaCl and 0.02% Tween 20) and Milli-Q water, and then dried in an incubator at 37° C. […]

Substance: NH2-Ser-Thr-Ser-Nle-Glu-His-D-Phe-Arg-Trp-Gly-Lys-Pro-Val-OH [NDP-MSH]
- Mean of Fluorescence Intensity (M): 97.00
